# Reference: PubChem BioAssay AID1947 (The Scripps Research Institute Molecular Screening Center, 2009)
# This is a selection; strong and weak results do not stand in their true shares. Calls of active or inactive are those of the source.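 The calls were made as follows: active = inhibition above the screen mean inhibition plus 3 SD, computed separately per campaign (cut at about 18% in these data); inactive = the rest.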
# Tested on: Fam108B (ABHD17B) serine hydrolase [Mus musculus]
# Assay: inhibition of Fam108B (ABHD17B) hydrolase – biochemical, fluorescence polarization, counter-screen for RBBP9 inhibitor project, primary screen (AID 1947);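 also: inhibitors lower polarization as less probe binds the enzyme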
# Settings: recombinant Fam108B, FP-Rh probe fluorescence polarization; at 9.51 µM; active compounds read high
row,SMILES,inhibition
1,CN1CCN(CCOC(=O)C(O)(c2ccccc2)c2ccccc2)CC1,inactive: 1.14%
2,COc1ccc(NC2CCN(C(=O)OC(C)(C)C)CC2)cc1,inactive: 1.83%
3,COc1cc(C(=O)NCC2(N3CCCCC3)CCCCC2)ccc1OC(F)F,inactive: -0.73%
4,O=C(NCC1(N2CCOCC2)CCCCC1)c1cc(=O)[nH]c2ccccc12,inactive: 6.43%
5,O=C(NCC1(N2CCCCC2)CCCCC1)c1cccc(C(F)(F)F)c1,inactive: 3.61%
6,O=C(NCC1(N2CCCCC2)CCCCC1)c1cccc([N+](=O)[O-])c1,inactive: -3.07%
7,N#CC1(Nc2ccccc2)CCN(CCc2ccccc2)CC1,inactive: 5.4%
8,CCN1CCC(Nc2ccc(Cl)cc2)CC1,inactive: -0.83%
9,O=C(NCC1(N2CCCCC2)CCCCC1)c1ccc(OC(F)F)cc1,inactive: -2.24%
10,CN1CCC(Nc2cccc(F)c2)CC1,inactive: 0.48%
11,COc1cc(OC)c(C(=O)NCC2(N(C)C)CCCCC2)cc1OC,inactive: -1.21%
12,CN(C)c1cccc(C(=O)NCC2(N3CCCCC3)CCCCC2)c1,inactive: -1.01%
13,COc1ccc(CN(CCCl)CCCl)cc1Cl,inactive: 0.22%
14,CC(C)c1ccc(NC2CCN(C(=O)OC(C)(C)C)CC2)cc1,inactive: 4.74%
15,CCOC(=O)N1CCC(Nc2ccc(OC)cc2)CC1,inactive: -0.95%
16,N#CC1(Nc2ccccc2)CCN(Cc2ccccc2)CC1,inactive: -0.63%
17,O=C(OC1CN2CCC1CC2)C1c2ccccc2Oc2ccccc21 (stereo unspecified),inactive: 2.84%
18,O=C(NCC1(N2CCOCC2)CCCCC1)c1cc2ccccc2o1,inactive: 1.71%
19,Cc1cc(C)cc(N(C(=O)c2ccccc2)C2CCN(C(=O)OC(C)(C)C)CC2)c1,inactive: 2.1%

row,SMILES,inhibition
1,O=C(NCC1(N2CCCCC2)CCCCC1)c1ccc(Cl)nc1,inactive: -2.27%
2,CSc1ccccc1C(=O)NCC1(N2CCCCC2)CCCCC1,inactive: -0.7%
3,O=C(NCC1(N2CCCCC2)CCCCC1)c1cccs1,inactive: -1.74%
4,O=C(NCC1(N2CCCCC2)CCCCC1)c1ccc(=O)[nH]c1,inactive: 4.63%
5,COc1ccc(C(=O)NCC2(N3CCCCC3)CCCCC2)c(OC)c1OC,inactive: -4.08%
6,CC(C)(C)OC(=O)N1CCC(N(C(=O)c2ccccc2)c2ccc(F)cc2)CC1,inactive: 1.15%
7,COc1ccc(C(=O)NCC2(N3CCCCC3)CCCCC2)cc1,inactive: -1.04%
8,Cc1ccc(OCC(C)C)c(CN(CCCl)CCCl)c1,inactive: 1.67%
9,CCOC(=O)N1CCC(Nc2cccc(C)c2)CC1,inactive: -5.52%
10,COc1ccc(NC2CCN(CCc3ccccc3)CC2)c(OC)c1,inactive: -0.07%
11,O=C(NCC1(N2CCCCC2)CCCCC1)c1ccc(F)cc1,inactive: -1.35%
12,CCOc1ccc(C)cc1CN(CCCl)CCCl,inactive: 0.42%
13,CN(C)c1ccc(C(=O)NCC2(N3CCCCC3)CCCCC2)cc1,inactive: 2.38%
14,CCN1CCC(Nc2cccc(F)c2)CC1,inactive: -4.04%
15,Fc1ccccc1NC1CCN(Cc2ccccc2)CC1,inactive: 2.1%
16,Cc1ccc(C(=O)NCC2(N3CCCCC3)CCCCC2)o1,inactive: 3.69%
17,COc1cc(OC)cc(C(=O)NCC2(N3CCCCC3)CCCCC2)c1,inactive: 3.71%
18,CCCOc1ccc(C)cc1CN(CCCl)CCCl,inactive: 0.17%
19,CN1CCC(Nc2ccc(Cl)cc2)CC1,inactive: 3.61%

row,SMILES,inhibition
1,CCC(CO)(C(=O)OC1CN2CCC1CC2)c1ccccc1 (stereo unspecified),inactive: -1.45%
2,COc1cc(OC)cc(C(=O)NCC2(N3CCOCC3)CCCCC2)c1,inactive: 2.15%
3,COc1cccc(C(=O)N(c2cc(C)cc(C)c2)C2CCN(C(=O)OC(C)(C)C)CC2)c1,inactive: 4.64%
4,CCCOc1ccc(C(=O)NCC2(N(C)C)CCCCC2)cc1,inactive: -2.75%
5,O=C(O)C1(Nc2ccccc2)CCN(Cc2ccccc2)CC1,inactive: -3.67%
6,CC(C)(C)OC(=O)N1CCC(Nc2ccccc2)CC1,inactive: -5.04%
7,CN1CCC(Nc2ccc(F)c(Cl)c2)CC1,inactive: -1.6%
8,CCOc1ncccc1C(=O)NCC1(N2CCOCC2)CCCCC1,inactive: 2.24%
9,CCc1cc(C(=O)NCC2(N3CCCCC3)CCCCC2)sc1C,inactive: -5.14%
10,O=C(OC1CN2CCC1CC2)C1c2ccccc2C=Cc2ccccc21 (stereo unspecified),inactive: 0.7%
11,N/C(=N\O)c1c(N)no[n+]1[O-],inactive: 1.25%
12,CCOC(=O)N1CCC(Nc2ccc(C)cc2)CC1,inactive: -1.98%
13,COc1ccc(C(=O)NCC2(N3CCOCC3)CCCCC2)cc1OC,inactive: -2.41%
14,CCCN1CCC(Nc2cc(OC)cc(OC)c2)CC1,inactive: 1.12%
15,c1ccc(CN2CCC(Nc3ccccc3)CC2)cc1,inactive: -2.64%
16,CN(C)C1(CNC(=O)c2cccc(C#N)c2)CCCCC1,inactive: -0.62%
17,CC(C)(C)OC(=O)N1CCC(N(C(=O)c2ccccc2)c2ccc(Cl)cc2)CC1,inactive: 6.77%
18,N#Cc1ccc(C(=O)NCC2(N3CCCCC3)CCCCC2)cc1,inactive: -0.57%
